Structures are written as SMILES.

Our source for the IC50 values is ChEMBL document CHEMBL2440048, “Novel carvedilol analogues that suppress store-overload-induced Ca2+ release” (J Med Chem, 2013).

This experiment can be described thus: Inhibition of RyR2 R4496C mutant (unknown origin)-mediated store-overload induced calcium release expressed in HEK293 cells after 8 to 10 mins by fura-2/AM dye-based fluorescence assay. It is filed as cell-based. The following applies: Homo sapiens.
Consider `COc1ccccc1OCCNCC(O)COc1cccc2[nH]c3ccccc3c12` (centres undefined) [CARVEDILOL], for which the IC50 came to 15.9 µM.

With `OC(CNCCOc1cc(Cl)c(Cl)cc1Cl)COc1cccc2[nH]c3ccccc3c12` (centres undefined), the IC50 came to 28 µM.

Regarding `COc1ccccc1CCCNCC(O)COc1cccc2[nH]c3ccccc3c12` (centres undefined), the IC50 is 7.43 µM.

On to `OC(COc1cccc2[nH]c3ccccc3c12)CN1CCOc2ccccc21` (centres undefined), for which the IC50 was 5.76 µM.

Take `COc1ccccc1COCCNCC(O)COc1cccc2[nH]c3ccccc3c12` (centres undefined): the concentration for half-maximal inhibition (IC50) is 10.2 µM.

Turning to `COc1cc(F)ccc1OCCNCC(O)COc1ccc2c(c1)[nH]c1ccccc12` (centres undefined), the IC50 came to 10.2 µM.

As to `OC(CNCCCc1ccccc1)COc1cccc2[nH]c3ccccc3c12` (centres undefined), the half-inhibitory concentration (IC50) was found to be 8.52 µM.

Consider `COc1ccccc1OCCN1CC(COc2cccc3[nH]c4ccccc4c23)OCC1=O` (centres undefined), for which the IC50 was 26.1 µM.

Consider `COc1ccccc1OCCNCC(O)COc1ccc2[nH]ccc2c1` (centres undefined), for which the IC50 is 101 µM.

Consider `COc1ccccc1OCCNCC(O)CCOc1cccc2ccccc12` (centres undefined), for which the half-inhibitory concentration (IC50) was found to be 9.77 µM.

On to `COc1ccccc1OCCNCC(O)COC12CC3CC(CC(C3)C1)C2` (centres undefined), for which the IC50 came to 75.6 µM.

Regarding `COc1ccccc1Oc1ccccc1NCC(O)COc1cccc2[nH]c3ccccc3c12` (centres undefined), the half-maximal inhibitory concentration (IC50) is 94.5 µM.

Consider `COc1ccccc1OCC1COC(COc2cccc3[nH]c4ccccc4c23)=N1` (centres undefined), for which the IC50 turned out to be 19.8 µM.

Take `COc1ccccc1OCCNCC(O)COc1cccc2c1c1ccccc1n2C` (centres undefined): the IC50 is 35.2 µM.

For the molecule `COc1ccccc1OCCNCC(O)CCCCOc1ccc2[nH]c3ccccc3c2c1` (centres undefined), the 50% inhibitory concentration (IC50) amounted to 15.9 µM.

For `Clc1cc(Cl)c(OCCN2CCOC(COc3cccc4[nH]c5ccccc5c34)C2)cc1Cl` (centres undefined), the IC50 came to 364 µM.

`COc1ccccc1OCCN1CC(COc2cccc3[nH]c4ccccc4c23)OC1=O` (centres undefined): the IC50 stood at 86.3 µM.

`COc1ccccc1OCCNCC(O)COc1ccc2c(c1)Nc1ccccc1S2` (centres undefined): the IC50 turned out to be 5.7 µM.

On to `COc1ccccc1OCCNCC(O)COc1ccc2c(c1)Nc1ccccc1S2(=O)=O` (centres undefined), for which the IC50 turned out to be 65.8 µM.

As for `OC(CNCCOCc1ccccc1)COc1cccc2[nH]c3ccccc3c12` (centres undefined), the IC50 stood at 9.51 µM.

Regarding `COc1ccccc1OCCNCCC(O)COc1ccc2[nH]c3ccccc3c2c1` (centres undefined), the IC50 was determined as 9.74 µM.

As for `COc1ccccc1OCCNCC(O)COc1ccc2c(c1)CCC(=O)N2` (centres undefined), the IC50 came to 463 µM.

On to `COc1ccccc1OCCNCC(O)COc1ccc2[nH]c3ccc(Br)cc3c2c1Br` (centres undefined), for which the IC50 amounted to 69.8 µM.

Consider `COc1ccccc1OCC(O)CNCCOc1cccc2[nH]c3ccccc3c12` (centres undefined), for which the IC50 came to 24.4 µM.

For `COc1ccccc1OCCNCC(O)COC1C2CC3CC(C2)CC1C3` (centres undefined), the IC50 was found to be 29.7 µM.

`COc1ccccc1OCCN1CCC(COc2cccc3[nH]c4ccccc4c23)OCC1=O` (centres undefined): the 50% inhibitory concentration (IC50) is 86.7 µM.

`COc1ccccc1OCCNCC(O)COCC12CC3CC(CC(C3)C1)C2` (centres undefined): the IC50 came to 28 µM.

On to `OC(CCOc1cccc2[nH]c3ccccc3c12)CN1CCOc2ccccc21` (centres undefined), for which the half-inhibitory concentration (IC50) is 19.7 µM.

With `COc1ccccc1OCCN1CC(COc2ccc3c(c2)[nH]c2ccccc23)OCC1=O` (centres undefined), the 50% inhibitory concentration (IC50) is 19.8 µM.

On to `Oc1ccccc1OCCNCC(O)COc1cccc2[nH]c3ccccc3c12` (centres undefined), for which the IC50 amounted to 7.62 µM.

Turning to `O=C1COc2ccccc2N1CC(O)COc1cccc2[nH]c3ccccc3c12` (centres undefined), the IC50 was 15.8 µM.

For `OC(CNCCOC1CCCCC1)COc1cccc2[nH]c3ccccc3c12` (centres undefined), the IC50 was found to be 35.2 µM.

Take `OC(CNCCOc1ccccc1C(F)(F)F)COc1ccc2c(c1)[nH]c1ccccc12` (centres undefined): the half-inhibitory concentration (IC50) was 15.4 µM.

Regarding `OC(COc1ccc2[nH]c3ccccc3c2c1)CN1CCOc2ccccc21` (centres undefined), the IC50 turned out to be 8.61 µM.

For the molecule `COc1ccccc1OCCN1CCOC(COc2cccc3[nH]c4ccccc4c23)C1` (centres undefined), the IC50 was found to be 22.9 µM.

Consider `CSc1ccccc1OCCNCC(O)COc1cccc2[nH]c3ccccc3c12` (centres undefined), for which the 50% inhibitory concentration (IC50) turned out to be 16.4 µM.

In the case of `COc1ccccc1OCCNCC(O)CCOc1cccc2[nH]c3ccccc3c12` (centres undefined), the concentration for half-maximal inhibition (IC50) came out at 16.8 µM.

As for `COc1ccccc1OCCN1CC(CCOc2ccc3c(c2)[nH]c2ccccc23)OC1=O` (centres undefined), the half-maximal inhibitory concentration (IC50) turned out to be 354 µM.

In the case of `COc1ccccc1OCCNCC(O)COc1cccc2c1-c1ccccc1C2=O` (centres undefined), the IC50 was found to be 30.1 µM.

`COc1ccc2c(c1)CN(C(=O)CCN1CCC(Cc3ccccc3)CC1)CCS2`: the IC50 was found to be 34.3 µM.

On to `COc1ccccc1OCCNCC(O)COc1ccc2c(c1)[nH]c1ccc(F)cc12` (centres undefined), for which the IC50 worked out at 5.5 µM.

Consider `OC(COc1cccc2[nH]c3ccccc3c12)CN1CCN(c2ccccc2)CC1` (centres undefined), for which the concentration for half-maximal inhibition (IC50) came to 62.7 µM.

Consider `COc1ccccc1OCCNCC(O)COc1cccc(Nc2ccccc2)c1` (centres undefined), for which the 50% inhibitory concentration (IC50) worked out at 18.2 µM.

With `COc1cc(Cl)c(Cl)cc1OCCN1CC(COc2cccc3[nH]c4ccccc4c23)OC1=O` (centres undefined), the IC50 amounted to 97.2 µM.

In the case of `COc1ccccc1OCCN1CC(COc2ccc3[nH]c4ccccc4c3c2)OCS1(=O)=O` (centres undefined), the IC50 worked out at 436 µM.

Regarding `COc1ccccc1OCCNCC(O)CCOc1ccc2c(c1)[nH]c1ccccc12` (centres undefined), the IC50 stood at 14.6 µM.

For `COc1ccccc1OCCNCC(O)COc1ccc2cn[nH]c2c1` (centres undefined), the IC50 stood at 545 µM.

Regarding `COc1ccccc1OCCNCC(O)COc1cccc2c1-c1ccccc1C2` (centres undefined), the IC50 stood at 17 µM.

As to `COc1ccccc1OCCNCC(O)COc1ccc2[nH]c3ccccc3c2c1` (centres undefined), the concentration for half-maximal inhibition (IC50) was determined as 7.74 µM.

`COc1ccccc1OCCNCC(O)COc1ccc2[nH]c3ccc(F)cc3c2c1` (centres undefined): the IC50 amounted to 6.26 µM.

With `OC(CNCCOc1ccccc1F)COc1ccc2c(c1)[nH]c1ccccc12` (centres undefined), the IC50 is 20.1 µM.

With `COc1ccccc1OCCNCC(O)COc1ccc2[nH]c3c(c2c1)CCCC3` (centres undefined), the half-maximal inhibitory concentration (IC50) was 17.4 µM.

For the molecule `COc1ccccc1OCCNCC(O)COc1ccc2c(c1)[nH]c1c(F)cc(F)cc12` (centres undefined), the IC50 was found to be 4.37 µM.

`O=C1OC(COc2cccc3[nH]c4ccccc4c23)CN1CCOC1CCCCC1` (centres undefined): the IC50 is 113 µM.

Regarding `O=C1OC(COc2cccc3[nH]c4ccccc4c23)CN1CCOc1ccccc1O` (centres undefined), the half-inhibitory concentration (IC50) was 16.1 µM.

Take `COc1cc(Cl)c(Cl)cc1OCCN1CCOC(COc2cccc3[nH]c4ccccc4c23)C1` (centres undefined): the half-maximal inhibitory concentration (IC50) was determined as 86.7 µM.

As for `COc1ccccc1OCCNCC(O)CCCCOc1cccc2[nH]c3ccccc3c12` (centres undefined), the half-inhibitory concentration (IC50) is 11.4 µM.

Regarding `COc1ccccc1OCCNCCC(O)COc1cccc2[nH]c3ccccc3c12` (centres undefined), the IC50 stood at 13.5 µM.

For `COc1ccccc1OCC1CN(CCOc2cccc3[nH]c4ccccc4c23)C(=O)CO1` (centres undefined), the 50% inhibitory concentration (IC50) worked out at 26.7 µM.

In the case of `OC(CNCCOc1ccccn1)COc1cccc2[nH]c3ccccc3c12` (centres undefined), the IC50 turned out to be 54.9 µM.

For `COc1ccccc1N1CCN(CC(O)COc2cccc3[nH]c4ccccc4c23)CC1` (centres undefined), the IC50 came out at 34.9 µM.

For `COc1ccccc1OCCNCC(O)CCOc1ccc2[nH]c3ccccc3c2c1` (centres undefined), the concentration for half-maximal inhibition (IC50) worked out at 9.72 µM.

Take `COc1ccccc1OCCN1CC(CCOc2cccc3[nH]c4ccccc4c23)OCC1=O` (centres undefined): the half-maximal inhibitory concentration (IC50) came out at 14.6 µM.

Regarding `COc1ccccc1OCCNCC(O)COc1ccc2c(c1)[nH]c1ccccc12` (centres undefined), the half-maximal inhibitory concentration (IC50) is 17.8 µM.

Consider `COc1ccccc1OCCNCC(O)COc1ccc2oc3ccccc3c2c1` (centres undefined), for which the IC50 turned out to be 11 µM.

As for `COc1ccccc1OCCN(C)CC(O)COc1cccc2[nH]c3ccccc3c12` (centres undefined), the half-inhibitory concentration (IC50) came out at 18.3 µM.

Regarding `COc1ccccc1OCCNCC(O)COc1cccc2ccccc12` (centres undefined), the half-maximal inhibitory concentration (IC50) came to 15.1 µM.

Regarding `COc1ccccc1OCCNCC(O)COc1cccc2c1[nH]c1ccccc12` (centres undefined), the IC50 is 12.4 µM.

`COc1ccccc1OCCN1CC(COc2ccc3[nH]c4ccccc4c3c2)OCC1=O` (centres undefined): the IC50 worked out at 6.2 µM.

`COc1cc(Cl)c(Cl)cc1OCCNCC(O)COc1cccc2[nH]c3ccccc3c12` (centres undefined): the IC50 amounted to 11.2 µM.

Turning to `COc1ccccc1SCCNCC(O)COc1cccc2[nH]c3ccccc3c12` (centres undefined), the half-inhibitory concentration (IC50) turned out to be 11.6 µM.

On to `Cc1ccccc1OCCNCC(O)COc1cccc2[nH]c3ccccc3c12` (centres undefined), for which the concentration for half-maximal inhibition (IC50) is 15.1 µM.

For `O=C1COC(COc2cccc3[nH]c4ccccc4c23)CN1CCOC1CCCCC1` (centres undefined), the concentration for half-maximal inhibition (IC50) worked out at 52.9 µM.

For the molecule `COc1ccccc1OCCNCC(O)COc1cccc2[nH]ccc12` (centres undefined), the IC50 came to 213 µM.
